From ChEMBL document CHEMBL5370607 (J Med Chem, 2023)

Sequences of proteins named here, by UniProt entry; tags and fusion partners are left off. A change or cut given only in a name is not applied to a line headed by its entry.
UniProt P35348: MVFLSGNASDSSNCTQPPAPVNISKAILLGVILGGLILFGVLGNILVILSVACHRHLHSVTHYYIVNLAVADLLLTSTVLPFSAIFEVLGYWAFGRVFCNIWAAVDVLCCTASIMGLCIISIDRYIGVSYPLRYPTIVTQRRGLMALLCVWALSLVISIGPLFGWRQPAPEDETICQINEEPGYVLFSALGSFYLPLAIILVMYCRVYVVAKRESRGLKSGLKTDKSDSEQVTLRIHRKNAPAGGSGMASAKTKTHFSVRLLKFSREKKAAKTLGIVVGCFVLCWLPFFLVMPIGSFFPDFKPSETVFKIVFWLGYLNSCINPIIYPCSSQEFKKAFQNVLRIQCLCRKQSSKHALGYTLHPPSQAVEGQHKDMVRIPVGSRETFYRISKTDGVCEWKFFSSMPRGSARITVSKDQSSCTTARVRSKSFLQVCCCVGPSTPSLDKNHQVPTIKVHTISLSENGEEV
UniProt P25100, whole entry, looked up: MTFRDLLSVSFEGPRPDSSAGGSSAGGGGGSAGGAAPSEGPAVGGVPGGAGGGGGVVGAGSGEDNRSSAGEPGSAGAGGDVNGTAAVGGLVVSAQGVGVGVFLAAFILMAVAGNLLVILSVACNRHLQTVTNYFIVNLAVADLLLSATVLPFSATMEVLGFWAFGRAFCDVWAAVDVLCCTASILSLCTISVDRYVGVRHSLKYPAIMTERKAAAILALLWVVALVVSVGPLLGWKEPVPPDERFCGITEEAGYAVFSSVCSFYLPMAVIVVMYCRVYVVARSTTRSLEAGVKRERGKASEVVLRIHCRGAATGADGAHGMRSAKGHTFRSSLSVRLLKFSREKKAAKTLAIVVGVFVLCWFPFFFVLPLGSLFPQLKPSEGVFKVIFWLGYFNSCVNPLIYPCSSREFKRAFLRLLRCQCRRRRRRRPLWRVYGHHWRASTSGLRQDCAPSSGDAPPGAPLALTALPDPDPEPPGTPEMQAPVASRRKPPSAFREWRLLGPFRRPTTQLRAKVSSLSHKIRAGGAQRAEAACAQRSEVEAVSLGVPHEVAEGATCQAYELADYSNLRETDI
UniProt P35368, whole entry, looked up: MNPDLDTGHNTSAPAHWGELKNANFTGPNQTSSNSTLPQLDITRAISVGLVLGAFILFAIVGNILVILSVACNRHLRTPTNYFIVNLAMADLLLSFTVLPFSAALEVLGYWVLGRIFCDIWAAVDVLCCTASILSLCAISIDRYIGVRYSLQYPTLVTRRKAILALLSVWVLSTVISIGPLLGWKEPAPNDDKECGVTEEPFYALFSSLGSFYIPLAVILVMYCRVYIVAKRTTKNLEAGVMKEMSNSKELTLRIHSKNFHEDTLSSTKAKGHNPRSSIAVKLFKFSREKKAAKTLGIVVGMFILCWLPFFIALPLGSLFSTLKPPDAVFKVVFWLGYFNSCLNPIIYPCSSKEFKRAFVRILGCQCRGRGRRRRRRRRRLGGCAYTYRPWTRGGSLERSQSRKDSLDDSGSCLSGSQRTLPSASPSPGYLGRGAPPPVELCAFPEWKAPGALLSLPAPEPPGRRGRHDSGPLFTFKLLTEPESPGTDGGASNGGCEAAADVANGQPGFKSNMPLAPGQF
UniProt P41595, whole entry: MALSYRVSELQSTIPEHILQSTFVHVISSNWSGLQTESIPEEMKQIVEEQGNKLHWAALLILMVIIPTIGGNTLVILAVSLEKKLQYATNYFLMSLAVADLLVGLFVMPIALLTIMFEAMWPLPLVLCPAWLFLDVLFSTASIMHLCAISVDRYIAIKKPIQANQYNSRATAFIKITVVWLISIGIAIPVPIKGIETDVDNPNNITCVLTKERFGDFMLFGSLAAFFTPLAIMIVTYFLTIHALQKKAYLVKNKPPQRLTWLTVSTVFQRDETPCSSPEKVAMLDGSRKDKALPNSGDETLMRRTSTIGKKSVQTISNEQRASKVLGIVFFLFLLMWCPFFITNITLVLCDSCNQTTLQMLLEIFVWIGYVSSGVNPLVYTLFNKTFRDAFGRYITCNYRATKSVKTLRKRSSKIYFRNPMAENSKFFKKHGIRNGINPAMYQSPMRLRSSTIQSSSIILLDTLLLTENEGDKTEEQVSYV

How the values were obtained:
[1] = molecular target: Adrenergic receptor alpha-1 (Homo sapiens) (UniProt P35348+P25100+P35368); assay: Binding affinity to adrenergic alpha-1 receptor (unknown origin) by radioligand binding assay; type: protein assay
[2] = molecular target: 5-hydroxytryptamine receptor 2B (Homo sapiens) (UniProt P41595); assay: Binding affinity to 5-HT2B receptor (unknown origin) by radioligand binding assay

Activity [1]: inactive
Activity [2]: inactive
SMILES: Clc1cccc(Cn2ccc3c(N4CCNCC4)nc4ccccc4c32)c1

The source made the active and inactive calls. The calls are words filed in the database; no cut-off is given here.
